{
  "sequences": {"note": "By UniProt entry, the sequences of proteins in these tests, tags left out.", "UniProt P32245, whole entry": "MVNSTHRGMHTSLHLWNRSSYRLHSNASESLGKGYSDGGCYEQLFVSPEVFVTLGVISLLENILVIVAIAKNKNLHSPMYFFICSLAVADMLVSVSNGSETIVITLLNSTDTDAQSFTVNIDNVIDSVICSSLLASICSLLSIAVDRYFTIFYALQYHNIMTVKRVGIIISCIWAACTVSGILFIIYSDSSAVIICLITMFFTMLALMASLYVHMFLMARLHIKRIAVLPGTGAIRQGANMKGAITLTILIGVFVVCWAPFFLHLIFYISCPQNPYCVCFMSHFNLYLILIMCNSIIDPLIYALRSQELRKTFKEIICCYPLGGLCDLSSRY"},
  "source": "paper PMC3521580",
  "about": "(Journal of medicinal chemistry, 2011)",
  "molecular_target": "human MC4R (Homo sapiens, UniProt P32245)",
  "assay": "cAMP biological response chemiluminescent immunoassay in Hek293/hMC4R cells",
  "assay_type": "cell-based",
  "conditions": "hMC4R cells, result in words",
  "data": [
    {"smiles": "CC(=O)N[C@@H](Cc1c[nH]cn1)C(=O)N[C@H](Cc1ccccc1)C(=O)N[C@@H](CCCNC(=N)N)C(=O)N[C@@H](Cc1c[nH]c2ccccc12)C(N)=O", "note": "[Ac-MSH(4), reference compound]", "values": [
      {"measurement": "cAMP production, agonist activity at MC4R", "result": "weak agonist"}
    ]}
  ]
}
